Here are results for 54 molecules from PubChem BioAssay AID602162 (NMMLSC, 2011).

Amino acid sequences for entries named in this document (tags omitted).
UniProt Q9NP58, whole entry: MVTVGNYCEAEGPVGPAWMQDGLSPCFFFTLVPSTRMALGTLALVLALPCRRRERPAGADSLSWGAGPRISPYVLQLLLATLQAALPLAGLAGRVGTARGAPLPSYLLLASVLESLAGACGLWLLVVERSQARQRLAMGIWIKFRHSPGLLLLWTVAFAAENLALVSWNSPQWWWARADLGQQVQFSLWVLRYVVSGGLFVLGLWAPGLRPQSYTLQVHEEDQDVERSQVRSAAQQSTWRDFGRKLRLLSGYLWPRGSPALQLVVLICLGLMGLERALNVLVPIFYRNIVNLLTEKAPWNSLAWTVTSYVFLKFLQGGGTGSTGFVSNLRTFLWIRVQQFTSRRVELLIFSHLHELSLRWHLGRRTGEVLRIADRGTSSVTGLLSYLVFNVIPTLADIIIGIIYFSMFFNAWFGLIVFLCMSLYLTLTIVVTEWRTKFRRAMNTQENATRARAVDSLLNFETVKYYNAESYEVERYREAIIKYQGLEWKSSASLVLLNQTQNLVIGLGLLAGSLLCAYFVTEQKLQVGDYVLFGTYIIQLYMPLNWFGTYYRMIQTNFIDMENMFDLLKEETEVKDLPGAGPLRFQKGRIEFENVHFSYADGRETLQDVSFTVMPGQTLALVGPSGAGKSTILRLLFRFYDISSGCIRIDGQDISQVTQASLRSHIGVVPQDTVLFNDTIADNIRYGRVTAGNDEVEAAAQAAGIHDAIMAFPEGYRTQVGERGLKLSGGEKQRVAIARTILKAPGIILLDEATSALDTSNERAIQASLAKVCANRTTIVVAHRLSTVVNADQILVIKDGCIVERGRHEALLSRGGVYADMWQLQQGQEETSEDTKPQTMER

SMILES strings stand for the structures. Only a part is listed here, and it is no random draw. Calls of active or inactive are those of the source.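 Rule for the calls: active = fluorescence ratio to DMSO below 75%, the collection mean minus 3 SD; inconclusive = too few cells collected in the well; inactive = the rest.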

The target in the experiment is ATP-binding cassette sub-family B member 6 (Homo sapiens) (UniProt Q9NP58). Kind of experiment: ABCB6 transporter inhibitors, primary screen, K562-ABCB6 cells, flow cytometry, MLPCN library (AID 602162).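 Note: signal is porphyrin accumulated inside mitochondria; 100% equals median channel fluorescence of DMSO control wells; lower ratio means ABCB6 inhibition with less porphyrin fluorescence.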 To be noted: K562-ABCB6 porphyrin accumulation, 1 h, at 10 µM, active compounds read low. For orientation: In flow cytometry, cells or beads pass a laser one at a time.
For `O=C(NCC1(N2CCOCC2)CCCCC1)c1cc2ccccc2o1`, the fluorescence ratio to DMSO was inactive: 98%.

In the case of `O=c1[nH]c2ccccc2n1C1CCN(C(c2ccccc2OC(F)(F)F)c2nnnn2C2CCCCC2)CC1` (centres undefined), the fluorescence ratio to DMSO was inactive: 104%. As for `O=C(NCC1(N2CCCCC2)CCCCC1)c1ccc(Cl)nc1`, the figure is inactive: 103%; as for `Cc1cc(C)cc(N(C(=O)c2ccccc2)C2CCN(C(=O)OC(C)(C)C)CC2)c1`, inactive: 102%; as for `CSc1ccccc1C(=O)NCC1(N2CCCCC2)CCCCC1`, inactive: 104%. `Cc1cccc(NC2(C#N)CCN(Cc3ccccc3)CC2)c1`: the fluorescence ratio to DMSO is inactive: 101%. As for `O=C(NCC1(N2CCCCC2)CCCCC1)c1ccc(=O)[nH]c1`, the fluorescence ratio to DMSO is inactive: 101%. In the case of `CCCCn1nnnc1C(c1cccs1)N1CCC(n2c(=O)[nH]c3ccccc32)CC1` (centres undefined), the fluorescence ratio to DMSO was inactive: 95%.

Regarding `O=C(NCC1(N2CCCCC2)CCCCC1)c1cccs1`, the fluorescence ratio to DMSO is inactive: 101%. In the case of `CCCCn1nnnc1C(CC)N1CCC(n2c(=O)[nH]c3ccccc32)CC1` (centres undefined), the fluorescence ratio to DMSO is inactive: 105%. For `COc1ccc(C(=O)NCC2(N3CCCCC3)CCCCC2)cc1`, the fluorescence ratio to DMSO is inactive: 104%. `CCC(c1nnnn1C1CCCC1)N1CCC(n2c(=O)[nH]c3ccccc32)CC1` (centres undefined): the fluorescence ratio to DMSO was inactive: 103%.

Regarding `CC(C)(C)OC(=O)N1CCC(N(C(=O)c2ccccc2)c2ccc(F)cc2)CC1`, the fluorescence ratio to DMSO was inactive: 95%. Turning to `COc1ccc(C(=O)NCC2(N3CCCCC3)CCCCC2)c(OC)c1OC`, the fluorescence ratio to DMSO was inactive: 94%. For `O=c1[nH]c2ccccc2n1C1CCN(C(c2cccc3ccccc23)c2nnnn2C2CCCC2)CC1` (centres undefined), the fluorescence ratio to DMSO is inactive: 97%. As to `COc1cc(C(=O)NCC2(N(C)C)CCCCC2)ccc1OC(F)F`, the fluorescence ratio to DMSO is inactive: 99%. The result for `CCOC(=O)N1CCC(Nc2cccc(C)c2)CC1` reads inactive: 97%; that for `O=c1[nH]c2ccccc2n1C1CCN(C(c2ccccc2)c2nnnn2C2CCCCC2)CC1` (centres undefined), inactive: 98%. `O=C(NCC1(N2CCCCC2)CCCCC1)c1ccc(F)cc1`: the fluorescence ratio to DMSO is inactive: 97%. `CCCCn1nnnc1C(c1cc2ccccc2o1)N1CCC(n2c(=O)[nH]c3ccccc32)CC1` (centres undefined): the fluorescence ratio to DMSO is inactive: 97%. The result for `O=P1(N(CCCl)CCCl)SCCCS1` reads inactive: 92%. Consider `CCCCOc1ccc(C(=O)NCC2(N3CCOCC3)CCCCC2)cc1`, for which the fluorescence ratio to DMSO was inactive: 96%.

Consider `COc1ccc(NC2CCN(CCc3ccccc3)CC2)c(OC)c1`, for which the fluorescence ratio to DMSO was inactive: 95%. `CCOC(=O)N1CCC(Nc2ccc(F)cc2)CC1`: the fluorescence ratio to DMSO was inactive: 98%. `CCOc1ccc(C)cc1CN(CCCl)CCCl`: the fluorescence ratio to DMSO was inactive: 94%. On to `CC(C)(C)n1nnnc1C(c1ccccc1)N1CCC(n2c(=O)[nH]c3ccccc32)CC1` (centres undefined), for which the fluorescence ratio to DMSO is inactive: 102%. `O=C1CCN(Cc2ccccc2)CC1`: the fluorescence ratio to DMSO is inactive: 103%. For the molecule `CCCCn1nnnc1C(c1cccc2ccccc12)N1CCC(n2c(=O)[nH]c3ccccc32)CC1` (centres undefined), the fluorescence ratio to DMSO is inactive: 92%. Take `CN1CCN(CCOC(=O)C(O)(c2ccccc2)c2ccccc2)CC1`: the fluorescence ratio to DMSO is inactive: 98%.

`CC(C)c1ccc(C(=O)NCC2(N3CCOCC3)CCCCC2)cc1`: the fluorescence ratio to DMSO was inactive: 90%. Regarding `COc1ccc(NC2CCN(C(=O)OC(C)(C)C)CC2)cc1`, the fluorescence ratio to DMSO is inactive: 94%.

For `COc1cc(C(=O)NCC2(N3CCCCC3)CCCCC2)ccc1OC(F)F`, the fluorescence ratio to DMSO was inactive: 108%. As for `O=C(NCC1(N2CCOCC2)CCCCC1)c1cc(=O)[nH]c2ccccc12`, the fluorescence ratio to DMSO is inactive: 103%. Take `O=C(NCC1(N2CCCCC2)CCCCC1)c1cccc(C(F)(F)F)c1`: the fluorescence ratio to DMSO is inactive: 106%. With `O=C(NCC1(N2CCCCC2)CCCCC1)c1cccc([N+](=O)[O-])c1`, the fluorescence ratio to DMSO is inactive: 94%. In the case of `CSc1ccc(C(=O)NCC2(N3CCOCC3)CCCCC2)cc1`, the fluorescence ratio to DMSO is inactive: 96%. For `CCN1CCC(Nc2ccc(Cl)cc2)CC1`, the fluorescence ratio to DMSO was inactive: 99%.

With `N#CC1(Nc2ccccc2)CCN(CCc2ccccc2)CC1`, the fluorescence ratio to DMSO was inactive: 10100%. Take `O=c1[nH]c2ccccc2n1C1CCN(C(c2ccccc2OC(F)(F)F)c2nnnn2C2CCCC2)CC1` (centres undefined): the fluorescence ratio to DMSO was inactive: 105%.

Take `CC(C)(C)n1nnnc1C(c1ccccc1OC(F)(F)F)N1CCC(n2c(=O)[nH]c3ccccc32)CC1` (centres undefined): the fluorescence ratio to DMSO was inactive: 97%. With `O=C(NCC1(N2CCCCC2)CCCCC1)c1ccc(OC(F)F)cc1`, the fluorescence ratio to DMSO was inactive: 93%.

In the case of `Cc1ccc(C(=O)NCC2(N(C)C)CCCCC2)o1`, the fluorescence ratio to DMSO was inactive: 105%. `CCCOc1ccc(C(=O)NCC2(N(C)C)CCCCC2)cc1OC`: the fluorescence ratio to DMSO is inactive: 96%. The result for `COc1ccc(C(c2nnnn2C2CCCC2)N2CCC(n3c(=O)[nH]c4ccccc43)CC2)cc1` (centres undefined) reads inactive: 95%. On to `O=C(NCC1(N2CCCCC2)CCCCC1)c1cncc(Br)c1`, for which the fluorescence ratio to DMSO is inactive: 88%. As for `CN1CCC(Nc2cccc(F)c2)CC1`, the figure is inactive: 102%; as for `CCCCn1nnnc1C(c1ccnc2ccccc12)N1CCC(n2c(=O)[nH]c3ccccc32)CC1` (centres undefined), inactive: 88%; as for `COc1cc(OC)c(C(=O)NCC2(N(C)C)CCCCC2)cc1OC`, inactive: 95%. As for `O=C(NCC1(N2CCOCC2)CCCCC1)c1cc(F)c(F)cc1Cl`, the figure is inactive: 100%; as for `CCC(c1nnnn1C(C)(C)C)N1CCC(n2c(=O)[nH]c3ccccc32)CC1` (centres undefined), inactive: 116%. With `COc1ccc(CN(CCCl)CCCl)cc1Cl`, the fluorescence ratio to DMSO was inactive: 93%. Regarding `CN(C)c1cccc(C(=O)NCC2(N3CCCCC3)CCCCC2)c1`, the fluorescence ratio to DMSO was inactive: 99%. In the case of `CCCCn1nnnc1C(c1ccccc1OC(F)(F)F)N1CCC(n2c(=O)[nH]c3ccccc32)CC1` (centres undefined), the fluorescence ratio to DMSO was inactive: 94%. As for `CC(C)c1ccc(NC2CCN(C(=O)OC(C)(C)C)CC2)cc1`, the figure is inactive: 96%.
